According to EP4703474A1, “ANTI-LRRC15 ANTIBODY” (priority 2023, dated 2024):
Numbering of substitutions follows the chain as printed.

B1: H02L01 antibody (antibody, human IgG1, kappa, L234A L235A, V domains shown)
VH: EVQLVESGGGLVQPGGSLRLSCAASGFTFRDYYMAWVRQAPGKGLEWVSSIGFDESRTYYADSVKGRFTISRDDSKNTLYLQMNSLRAEDTAVYYCARHGVSYYSGDNWFAYWGQGTLVTVSS
VL: DIQMTQSPSSLSASVGDRVTITCKSSQGLLYSGDQKNYLAWYQQKPGKAPKLLIYWASTRQSGVPSRFSGSGSGTDFTLTISSLQPEDFATYYCQQYYDPPYTFGQGTKVEIKR
notes: Humanized anti-LRRC15 antibody, human IgG1 / kappa; also called hR024 (hR024 H02 + hR024 L01)
B2: H09L03 antibody (antibody, human IgG1, kappa, L234A L235A, V domains shown)
VH: B1 VH with S49A, N77S, A97T
VL: B1 VL with A49S, S66D
notes: Humanized anti-LRRC15 antibody, human IgG1 / kappa; also called hR024 (hR024 H09 + hR024 L03)
B3: H02L01-V2 antibody (antibody, human IgG1, kappa, L234A L235A, V domains shown)
VH: B1 VH with Y103R
VL: B1 VL
notes: Humanized anti-LRRC15 antibody, human IgG1 / kappa; also called hR024 (hR024 H02-V2 + hR024 L01)
B4: H02L01-V1 antibody (antibody, human IgG1, kappa, L234A L235A, V domains shown)
VH: B1 VH with Y103K
VL: B1 VL
notes: Humanized anti-LRRC15 antibody, human IgG1 / kappa; also called hR024 (hR024 H02-V1 + hR024 L01)

molecular target: T1, mouse LRRC15 extracellular domain expressed on HEK293α (pDisplay-mLRRC15 ECD) (mouse, UniProt Q80X72 22-536); experiment: flow cytometry, transfected HEK293α, 10 µg/mL
T1 construct: vector-derived parts not described

binding result	Binder
binds	B1
binds	B2
binds	B3
binds	B4

molecular target: T2, rat LRRC15 extracellular domain expressed on HEK293α (pDisplay-ratLRRC15 ECD) (rat, UniProt Q8R5M3 22-535); experiment: flow cytometry, transfected HEK293α, 10 µg/mL
T2 construct: vector-derived parts not described; also called rLRRC15 ECD

binding result	Binder
binds	B1
binds	B2
binds	B3
binds	B4

molecular target: T3, mouse LRRC15 (endogenous, on Balb/3T3 cells) (mouse, UniProt Q80X72 22-579); experiment: flow cytometry, endogenous LRRC15 on mouse fibroblast line Balb/3T3
T3 construct: Endogenous protein of the mouse fibroblast line Balb/3T3; also called mLRRC15

binding result	Binder
binds	B1
binds	B2
binds	B3
binds	B4
